From US10709709B2, “Substituted carbonucleoside derivatives useful as anticancer agents” (Pfizer Inc., priority 2016, dated 2020)

Chains of the proteins cited; added tags and fusions are not shown. A line that says so, or that is headed by a name, gives the form on record, which may keep a tag or linker. Residues count along the entry.
UniProt O14744, 2-637 with tags or gaps limits assumed: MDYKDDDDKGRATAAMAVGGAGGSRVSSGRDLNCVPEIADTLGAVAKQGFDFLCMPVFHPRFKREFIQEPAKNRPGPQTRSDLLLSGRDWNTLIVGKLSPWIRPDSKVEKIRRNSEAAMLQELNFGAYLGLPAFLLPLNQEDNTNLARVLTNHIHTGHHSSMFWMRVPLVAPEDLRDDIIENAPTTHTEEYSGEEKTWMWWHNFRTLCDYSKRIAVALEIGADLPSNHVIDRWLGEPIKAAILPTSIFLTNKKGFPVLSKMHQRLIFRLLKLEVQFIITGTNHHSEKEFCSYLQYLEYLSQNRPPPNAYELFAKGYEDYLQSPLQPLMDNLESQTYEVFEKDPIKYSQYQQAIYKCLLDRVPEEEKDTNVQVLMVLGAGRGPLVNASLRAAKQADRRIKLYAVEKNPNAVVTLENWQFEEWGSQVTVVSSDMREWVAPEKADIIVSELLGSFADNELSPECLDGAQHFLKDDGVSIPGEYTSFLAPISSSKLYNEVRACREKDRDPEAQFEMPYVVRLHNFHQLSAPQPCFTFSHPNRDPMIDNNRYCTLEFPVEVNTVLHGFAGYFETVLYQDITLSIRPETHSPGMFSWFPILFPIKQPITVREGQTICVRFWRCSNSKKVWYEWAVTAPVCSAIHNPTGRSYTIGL
UniProt Q9BQA1, whole entry partner: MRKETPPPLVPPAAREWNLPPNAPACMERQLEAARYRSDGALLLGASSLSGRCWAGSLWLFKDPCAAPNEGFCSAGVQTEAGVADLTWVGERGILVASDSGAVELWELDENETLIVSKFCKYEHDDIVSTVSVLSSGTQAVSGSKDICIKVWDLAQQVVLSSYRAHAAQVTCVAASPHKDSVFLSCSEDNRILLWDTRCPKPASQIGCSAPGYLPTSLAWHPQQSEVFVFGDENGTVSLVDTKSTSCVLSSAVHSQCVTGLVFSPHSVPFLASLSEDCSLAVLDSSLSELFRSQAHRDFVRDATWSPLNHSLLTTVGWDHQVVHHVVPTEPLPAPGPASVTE

Target: PRMT5/MEP50 protein complex (Homo sapiens (Human), UniProt O14744)
Assay: PRMT5 biochemical assay (3H-SAM methylation of H4(1-21) peptide, filter plate scintillation)
Conditions: read-out: PRMT5 IC50; 10 nM PRMT5/MEP50 complex, 200 nM H4(1-21) peptide, 1 uM SAM, 25 minute incubation at room temperature

Nc1ncnc2c1c(F)cn2[C@@H]1C[C@H](Oc2cccc3c2CCNC3)[C@@H](O)[C@H]1O
IC50: 28 nM
